Results as given in US11324749B2, “Combination therapy for treatment of hematological diseases” (Incyte Corporation, priority 2018, dated 2022).

Target: human JAK1 (a.a. 837-1142) (Homo sapiens, UniProt P23458)
Assay: In vitro JAK kinase assay (HTRF), JAK1
Assay type: biochemical
Conditions: 1 mM ATP

Q: For CN(C)Cc1cc(F)cc(OC2CCN(CC(CC#N)n3cc(-c4ncnc5[nH]ccc45)cn3)CC2)c1 (single isomer, unassigned) [Compound 14, 4-(4-{3-[(dimethylamino)methyl]-5-fluorophenoxy}piperidin-1-yl)-3-[4-(7H-pyrrolo[2,3-d]pyrimidin-4-yl)-1H-pyrazol-1-yl]butanenitrile], which IC50 is on record?
A: < 10 nM
